Key:
[1] = biological target: fast myofibril ATPase from rabbit psoas muscle (Oryctolagus cuniculus, UniProt A0A5F9CQ93); assay: Myofibril ATPase, rabbit psoas
Description: (§1) Myofibrils were prepared from various animals and tissues: rabbit psoas muscle and porcine cardiac muscle were purchased from Pel-Freez Biologicals. Human bicep and soleus muscle were purchased from BioIVT, and neonatal rat muscle was obtained in house. All myofibrils were prepared using published methods ([21]).
(§2) A lactate dehydrogenase/pyruvate kinase enzyme-coupled system ([62]) was used to monitor ATP hydrolysis rates in various muscle preparations. Rabbit psoas myofibrils were used for high-throughput screening at pCa 6.25 at 0.25 mg/mL. A multidrop cassette (Thermo Fisher Scientific) dispensed 10 μL of the coupled enzyme system, calcium, and myofibrils to 10 μL ATP, NADH and PEP to initiate the reaction prior to reading on a plate reader (Envision, Perkin Elmer) for 10 minutes per plate at room temperature. Hits were reconfirmed, and secondary assays were used to evaluate selectivity, including bovine cardiac myofibrils (pCa 5.86) and enzyme coupled hits with a hexokinase screen (Sigma-Aldrich).

The chains behind the UniProt entries cited, without tags or fusion partners. Residues count along the entry.
UniProt A0A5F9CQ93, 1-1933: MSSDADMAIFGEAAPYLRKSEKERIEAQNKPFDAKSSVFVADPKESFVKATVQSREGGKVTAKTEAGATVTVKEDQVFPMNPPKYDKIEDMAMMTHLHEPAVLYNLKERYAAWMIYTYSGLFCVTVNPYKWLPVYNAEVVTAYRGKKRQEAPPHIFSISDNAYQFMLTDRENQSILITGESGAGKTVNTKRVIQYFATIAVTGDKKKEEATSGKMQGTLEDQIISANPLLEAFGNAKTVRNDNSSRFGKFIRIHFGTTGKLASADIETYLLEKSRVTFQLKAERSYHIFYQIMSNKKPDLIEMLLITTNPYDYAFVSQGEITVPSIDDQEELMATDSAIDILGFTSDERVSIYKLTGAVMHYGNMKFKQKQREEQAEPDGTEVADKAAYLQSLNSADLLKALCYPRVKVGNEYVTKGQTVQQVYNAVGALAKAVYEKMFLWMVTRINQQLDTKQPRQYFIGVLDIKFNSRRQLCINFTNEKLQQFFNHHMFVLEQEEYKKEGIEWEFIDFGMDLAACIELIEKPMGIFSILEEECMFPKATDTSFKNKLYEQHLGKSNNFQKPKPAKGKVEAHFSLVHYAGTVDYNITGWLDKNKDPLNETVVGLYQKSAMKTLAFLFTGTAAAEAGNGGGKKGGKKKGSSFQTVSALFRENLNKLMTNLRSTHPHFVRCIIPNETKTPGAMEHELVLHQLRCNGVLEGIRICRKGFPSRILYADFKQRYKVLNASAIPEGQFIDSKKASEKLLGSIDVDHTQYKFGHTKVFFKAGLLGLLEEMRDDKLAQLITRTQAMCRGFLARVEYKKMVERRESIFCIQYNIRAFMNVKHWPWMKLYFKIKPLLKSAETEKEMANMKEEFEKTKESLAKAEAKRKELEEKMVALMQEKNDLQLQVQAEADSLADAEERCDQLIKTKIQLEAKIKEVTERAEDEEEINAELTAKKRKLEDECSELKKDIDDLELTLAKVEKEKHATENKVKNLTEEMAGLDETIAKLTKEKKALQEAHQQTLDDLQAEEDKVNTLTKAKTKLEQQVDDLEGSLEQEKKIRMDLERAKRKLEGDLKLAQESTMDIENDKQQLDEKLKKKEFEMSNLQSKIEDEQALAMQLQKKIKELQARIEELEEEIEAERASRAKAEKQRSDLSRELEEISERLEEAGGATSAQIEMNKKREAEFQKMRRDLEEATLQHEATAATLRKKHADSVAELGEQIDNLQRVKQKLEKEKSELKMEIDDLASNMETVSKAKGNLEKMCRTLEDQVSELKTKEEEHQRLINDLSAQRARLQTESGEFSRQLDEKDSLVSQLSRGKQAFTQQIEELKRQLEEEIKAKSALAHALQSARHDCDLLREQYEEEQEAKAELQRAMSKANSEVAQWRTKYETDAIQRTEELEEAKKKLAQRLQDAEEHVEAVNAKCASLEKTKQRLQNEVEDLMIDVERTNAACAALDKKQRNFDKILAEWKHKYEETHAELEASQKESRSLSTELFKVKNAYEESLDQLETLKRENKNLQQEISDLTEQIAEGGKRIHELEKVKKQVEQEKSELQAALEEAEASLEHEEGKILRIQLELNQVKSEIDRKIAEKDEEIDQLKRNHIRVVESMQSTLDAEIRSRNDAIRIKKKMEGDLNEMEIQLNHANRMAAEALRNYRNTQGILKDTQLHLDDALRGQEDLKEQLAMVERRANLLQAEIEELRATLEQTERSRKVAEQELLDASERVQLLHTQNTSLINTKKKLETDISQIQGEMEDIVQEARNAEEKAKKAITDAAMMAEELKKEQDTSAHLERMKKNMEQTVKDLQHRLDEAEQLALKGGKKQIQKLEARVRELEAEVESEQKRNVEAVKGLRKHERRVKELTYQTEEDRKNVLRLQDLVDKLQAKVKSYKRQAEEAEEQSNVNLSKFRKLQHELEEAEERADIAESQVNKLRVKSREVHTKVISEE
UniProt A0A5F9CQ93, 1-837 limits assumed: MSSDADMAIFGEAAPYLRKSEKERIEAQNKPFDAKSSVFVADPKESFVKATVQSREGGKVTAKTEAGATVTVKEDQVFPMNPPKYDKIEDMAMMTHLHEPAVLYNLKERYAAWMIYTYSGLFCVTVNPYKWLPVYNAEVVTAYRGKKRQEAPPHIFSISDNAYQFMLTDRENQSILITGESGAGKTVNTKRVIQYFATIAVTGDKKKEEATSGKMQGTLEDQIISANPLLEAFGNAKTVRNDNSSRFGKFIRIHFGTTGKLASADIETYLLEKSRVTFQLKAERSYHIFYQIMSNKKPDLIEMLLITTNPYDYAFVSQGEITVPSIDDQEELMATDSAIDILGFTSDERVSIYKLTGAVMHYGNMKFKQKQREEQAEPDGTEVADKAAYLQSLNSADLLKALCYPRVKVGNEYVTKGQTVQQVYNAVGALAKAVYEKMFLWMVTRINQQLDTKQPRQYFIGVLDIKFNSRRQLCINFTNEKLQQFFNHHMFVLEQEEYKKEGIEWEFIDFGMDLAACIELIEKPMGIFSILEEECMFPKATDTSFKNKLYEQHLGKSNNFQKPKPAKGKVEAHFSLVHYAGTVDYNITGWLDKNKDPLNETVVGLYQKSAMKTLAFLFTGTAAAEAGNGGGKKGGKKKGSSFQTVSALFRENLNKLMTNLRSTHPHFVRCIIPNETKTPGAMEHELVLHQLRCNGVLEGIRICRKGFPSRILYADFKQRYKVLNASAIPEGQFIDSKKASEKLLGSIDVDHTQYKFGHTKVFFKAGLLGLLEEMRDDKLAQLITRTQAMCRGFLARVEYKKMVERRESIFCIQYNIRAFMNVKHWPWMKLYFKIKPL
UniProt P12883, whole entry: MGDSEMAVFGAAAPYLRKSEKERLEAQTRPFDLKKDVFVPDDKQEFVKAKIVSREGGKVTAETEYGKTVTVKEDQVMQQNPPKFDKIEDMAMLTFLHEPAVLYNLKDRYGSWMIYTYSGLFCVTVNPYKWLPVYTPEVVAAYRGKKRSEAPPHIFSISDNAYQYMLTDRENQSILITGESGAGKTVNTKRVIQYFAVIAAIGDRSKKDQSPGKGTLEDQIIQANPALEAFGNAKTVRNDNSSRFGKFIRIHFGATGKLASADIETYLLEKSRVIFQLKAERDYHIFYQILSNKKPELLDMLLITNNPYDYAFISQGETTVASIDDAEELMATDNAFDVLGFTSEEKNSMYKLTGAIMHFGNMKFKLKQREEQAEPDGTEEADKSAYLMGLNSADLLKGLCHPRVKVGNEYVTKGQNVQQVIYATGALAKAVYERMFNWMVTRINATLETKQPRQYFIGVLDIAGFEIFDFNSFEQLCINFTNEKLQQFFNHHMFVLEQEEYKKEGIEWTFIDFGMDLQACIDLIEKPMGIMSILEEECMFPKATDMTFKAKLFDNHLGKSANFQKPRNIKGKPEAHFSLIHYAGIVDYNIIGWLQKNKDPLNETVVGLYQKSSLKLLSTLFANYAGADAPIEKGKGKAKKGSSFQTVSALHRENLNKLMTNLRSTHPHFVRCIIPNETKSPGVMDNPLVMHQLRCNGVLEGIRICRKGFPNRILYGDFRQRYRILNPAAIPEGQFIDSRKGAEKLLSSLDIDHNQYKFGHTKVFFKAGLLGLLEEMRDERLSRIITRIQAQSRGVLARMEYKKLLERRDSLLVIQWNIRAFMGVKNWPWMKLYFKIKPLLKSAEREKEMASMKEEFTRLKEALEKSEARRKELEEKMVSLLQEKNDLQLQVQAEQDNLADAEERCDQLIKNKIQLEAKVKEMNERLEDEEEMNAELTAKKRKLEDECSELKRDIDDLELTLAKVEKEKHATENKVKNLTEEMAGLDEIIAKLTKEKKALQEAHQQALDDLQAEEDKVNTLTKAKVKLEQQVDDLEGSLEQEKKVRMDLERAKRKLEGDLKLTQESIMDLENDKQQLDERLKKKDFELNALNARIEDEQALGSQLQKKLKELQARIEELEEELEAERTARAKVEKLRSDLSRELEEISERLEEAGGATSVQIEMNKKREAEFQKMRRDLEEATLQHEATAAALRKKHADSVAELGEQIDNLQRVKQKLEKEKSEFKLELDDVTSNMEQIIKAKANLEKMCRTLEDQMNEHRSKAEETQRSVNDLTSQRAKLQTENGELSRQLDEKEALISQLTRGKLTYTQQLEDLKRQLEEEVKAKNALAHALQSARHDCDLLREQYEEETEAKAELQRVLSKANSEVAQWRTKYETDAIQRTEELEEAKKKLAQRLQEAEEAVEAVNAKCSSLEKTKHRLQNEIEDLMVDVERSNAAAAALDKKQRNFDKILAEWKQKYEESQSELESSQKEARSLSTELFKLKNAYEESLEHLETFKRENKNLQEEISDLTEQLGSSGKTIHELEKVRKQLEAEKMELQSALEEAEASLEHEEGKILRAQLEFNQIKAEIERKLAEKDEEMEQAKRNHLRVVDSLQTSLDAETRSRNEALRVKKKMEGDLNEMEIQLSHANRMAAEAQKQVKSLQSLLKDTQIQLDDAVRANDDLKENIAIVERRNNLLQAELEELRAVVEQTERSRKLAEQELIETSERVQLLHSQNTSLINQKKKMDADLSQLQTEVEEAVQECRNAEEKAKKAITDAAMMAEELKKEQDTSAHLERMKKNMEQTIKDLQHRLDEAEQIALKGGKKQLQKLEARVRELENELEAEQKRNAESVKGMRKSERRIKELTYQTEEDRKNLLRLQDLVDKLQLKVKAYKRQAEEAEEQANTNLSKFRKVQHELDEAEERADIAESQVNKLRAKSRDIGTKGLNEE
UniProt P08590, 2-195 partner limits assumed: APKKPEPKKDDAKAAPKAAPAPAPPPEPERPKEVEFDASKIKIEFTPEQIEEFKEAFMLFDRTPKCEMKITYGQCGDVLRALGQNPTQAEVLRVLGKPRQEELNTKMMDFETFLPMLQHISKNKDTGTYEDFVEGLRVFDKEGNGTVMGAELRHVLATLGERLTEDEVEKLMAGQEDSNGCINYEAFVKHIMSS
UniProt P02602, 2-192 partner limits assumed: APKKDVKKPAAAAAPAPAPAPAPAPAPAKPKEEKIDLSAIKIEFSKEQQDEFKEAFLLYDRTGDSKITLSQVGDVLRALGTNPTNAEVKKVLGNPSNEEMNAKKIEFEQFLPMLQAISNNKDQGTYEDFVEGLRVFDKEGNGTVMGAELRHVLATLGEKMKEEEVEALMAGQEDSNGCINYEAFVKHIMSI
UniProt P10916, 2-166 partner limits assumed: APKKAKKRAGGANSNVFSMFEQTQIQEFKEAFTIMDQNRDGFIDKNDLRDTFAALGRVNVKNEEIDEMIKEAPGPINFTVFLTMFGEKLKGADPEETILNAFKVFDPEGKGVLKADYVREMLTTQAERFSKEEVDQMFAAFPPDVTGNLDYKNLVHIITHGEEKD

[2] = biological target: slow bovine masseter skeletal myofibrils (Bos taurus, UniProt Q9BE39); assay: Myofibril ATPase, bovine masseter; format: biochemical; settings: read-out: IC50, myofibril ATPase, 100% type I, at pCa50
[3] = system: mouse gastrocnemius myofibrils; assay: Myofibril ATPase, mouse gastrocnemius
mouse TA myofibrils = assay: Myofibril ATPase, mouse TA
[4] = biological target: Rabbit Cardiac myofibrils; assay: Myofibril ATPase, rabbit cardiac; settings: read-out: IC50, myofibril ATPase, 25% MHCα, 75% MHC β, at pCa 50
[5] = biological target: Neonatal Rat (P1) myofibrils; assay: Myofibril ATPase, neonatal rat; format: biochemical; settings: read-out: IC50, myofibril ATPase, 100% neonatal/embryonic MHC
Description: as §1, §2

Human Bicep myofibrils = assay: Myofibril ATPase, human bicep; format: biochemical; settings: read-out: IC50, myofibril ATPase, 50% Type I, 50% IIa, IIx
Description: as §1, §2

Human Soleus myofibrils = assay: Myofibril ATPase, human soleus; format: biochemical; settings: read-out: IC50, myofibril ATPase, 66% Type I, 33% IIa, IIx, at pCa 50
Description: as §1, §2

[6] = biological target: Porcine Ventricle myofibrils (Sus scrofa, UniProt P79293); assay: Myofibril ATPase, porcine ventricle; settings: read-out: IC50, myofibril ATPase, 100% MHC β
Description: as §1, §2

Human Cardiac myofibrils = Human Cardiac myofibrils (Homo sapiens, UniProt P12883); assay: Myofibril ATPase, human cardiac; settings: read-out: IC50, myofibril ATPase, 7% MHCα, 93% MHCβ
Description: as §1, §2

[7] = biological target: fast skeletal S1 from rabbit psoas (Oryctolagus cuniculus, UniProt A0A5F9CQ93); assay: Actin-activated myosin S1 ATPase, fast skeletal; settings: rabbit psoas S1 fragment
Description: Smooth muscle chicken gizzard S1 was purchased from Cytoskeleton Inc. Other myosin S1 was prepared via published protocols ([21]). Briefly, fresh rabbit psoas and frozen porcine ventricular muscle (Pel-freez) were extracted in 0.3 M KCl, 0.15 M KH2PO4, 1 mM EGTA, 1 mM ATP, 1 mM DTT, pH 6.5, at 4°C. Full-length myosin was purified from each extract via low-ionic precipitations with final precipitation into PM12 buffer (12 mM PIPES, pH 7.0, 2 mM MgCl2). Purified myosin was resuspended in PIPES/EDTA buffer (20 mM PIPES, pH 6.8, 10 mM EDTA, 1 mM DTT) and reacted with 0.2 mg/mL α-chymotrypsin for 30 minutes at room temperature. Proteolysis was quenched with PMSF (final concentration 100 μM), and the reaction was centrifuged for 45 minutes at 230,000g. S1 fragment in the supernatant was dialyzed into PM12 with 0.02% sodium azide and clarified by centrifugation. Sucrose was added to 10% w/v and flash-frozen in liquid N2 and stored at –80°C. […]
A lactate dehydrogenase/pyruvate kinase enzyme-coupled system ([62]) was used to monitor ATP hydrolysis rates in various muscle preparations. […] A multidrop cassette (Thermo Fisher Scientific) dispensed 10 μL of the coupled enzyme system, calcium, and myofibrils to 10 μL ATP, NADH and PEP to initiate the reaction prior to reading on a plate reader (Envision, Perkin Elmer) for 10 minutes per plate at room temperature. […]

mouse TA muscle = assay: In situ TA force and lengthening injury; settings: mdx TA muscle, oral, 2 lengthening contractions
Description: Measurement of isometric force and eccentric injury response in situ was performed in mouse TA muscle based on published protocols ([30]). Mice were anesthetized with 2% isoflurane (0.7%–1.5% maintenance) on a 37°C platform. The distal tendon to the TA and EDL muscle was attached with 4-0 suture a servomotor (Aurora Scientific). The sciatic nerve was exposed at the knee for hook electrodes. For compound assessment, baseline isometric contraction was assessed at 25–175 Hz (9 mA, 300 ms) followed by 100 Hz stimuli every 5 minutes. After 15 minutes, compound was dosed PO, and recording continued for 4 hours followed by a second force frequency. For in situ eccentric injury, compound was administered PO, muscle was stimulated every 5 minutes at 100 Hz for 3.5 hours, and then 2 lengthening contractions were performed (10 min apart, 100 ms at 150 Hz, then lengthening 0.2 L0 at 2 L0/s and hold for 100 ms). Isometric force before and 10 minutes after the injury contractions was recorded.

DBA/2J mdx mouse = assay: 12-week dosing in DBA/2J mdx mice (fibrosis); format: in vivo; settings: 12 weeks, chow
Excerpt: C57BL/6 (stock no. 000664), C57BL/10J (stock no. 000665, control for mdx experiments), C57BL/10ScSn-Dmd^mdx/J (mdx, stock no. 001801), and D2.B10 (DBA/2-congenic) Dmd^mdx (DBA/2J mdx, stock no. 013141) mice were from The Jackson Laboratory. Sprague-Dawley rats were purchased from Charles River Laboratories. For ex vivo experiments, mice were 10–16 weeks old. For in situ experiments, mice were 8–14 weeks of age. For in vivo chronic dosing studies, mdx and DBA/2J mdx were 4–5 weeks of age at study start. Dosing was via a 10 mL/kg suspension (1% methyl cellulose, 0.1% Tween 80 in water). For studies in 14-day-old preweaning mice, PO dosing was via syrup suspension (3 mg/kg/d). […]
For sterile muscle injury, mice were anesthetized with isoflurane and 50 μL cardiotoxin (12 × 10^–6 M, 217503, Millipore) injected in the TA muscle. […] 8 μm cryosections were cut and stained with H&E. For each analysis, more than 10 slides (per condition/group) containing 6 muscle sections/sample were used, and myofibers in the injured area were counted and measured with a Mirax digital scanner and HALO software ([68]). […] Image analysis was performed using ImarisX64 software (Bitplane AG), and fiber sizing was calculated using minimal Feret’s diameter ([69]). […] Fiber type, size, and central nucleation were quantified with analysis via SMASH ([70]) and ImageJ (NIH). […]

CCNC(=O)Cn1nc(-c2ccc(OCC(F)(F)F)cc2)ccc1=O
Maximum Inhibition (%) ([1]; rabbit psoas myofibrils, bottom plateau of 4-parameter logistic fit): 98%
IC50 ([1]; read-out: IC50, myofibril ATPase, rabbit psoas, 96% IIx/d, at pCa50): 1800 nM
IC50 [2]: > 100000 nM
Maximum Inhibition (%) ([3]; mouse gastroc myofibrils): 98%
IC50 ([3]; read-out: IC50, myofibril ATPase, mouse gastrocnemius, 21% IIa, 15% IIx, 56% IIb): 600 nM
Maximum Inhibition (%) (mouse TA myofibrils; mouse TA myofibrils): > 99%
IC50 (mouse TA myofibrils; read-out: IC50, myofibril ATPase, mouse TA, mixed IIa, IIx, IIb): 700 nM
IC50 [4]: > 100000 nM
IC50 [5]: 800 nM
IC50 (Human Bicep myofibrils): 1000 nM
IC50 (Human Soleus myofibrils): 2400 nM
IC50 [6]: > 100000 nM
IC50 (Human Cardiac myofibrils): > 100000 nM
Maximum Inhibition (%) [7]: > 95%
strength drop after in situ lengthening injury (mouse TA muscle): protective
left ventricular fibrosis (DBA/2J mdx mouse): significant decreases in left ventricular fibrosis
